# Test system: 5'-nucleotidase (from Crotalus atrox venom)
# Experiment: Testing of protection from 5'-nucleotidase activity (Table 1A)
# Assay type: in vitro ADME
# Conditions: in words
structure (smiles),measurement,value
"COP(=O)(O)OC[C@H]1O[C@@H](n2cnc3c(=O)[nH]cnc32)[C@H](O)[C@@H]1O [Me-IMP, Methyl-5'-inosine-monophosphate]",resistance to hydrolysis by 5'-nucleotidase,extremely resistant

# From patent US5614504A, “Method of making inosine monophosphate derivatives and immunopotentiating uses thereof” (The University of South Florida, priority 1995, dated 1997)
